Key:
[1] = molecular target: Wee1 protein (Homo sapiens, UniProt P30291); assay: Binding of compound to Wee1 protein and Tracer 178 by TR-FRET (Wee1 kinase inhibitory activity); settings: read-out: IC50 (inhibitory activity against Wee1 kinase), 15 nM WEE1, 50 nM Tracer 178
[2] = system: MIA PaCa2 cells; assay: Anti-proliferative effect on MIA PaCa2 cells by Cell Titer-Glo; settings: read-out: MIA PaCa 2 (IC50, inhibition of proliferation in vitro), 3 days
[3] = system: H1299 cells; assay: Anti-proliferative effect on H1299 cells by Cell Titer-Glo; settings: read-out: H1299 (IC50, inhibition of proliferation in vitro), 3 days

Chains of the proteins cited; added tags and fusions are not shown.
UniProt P30291, whole entry: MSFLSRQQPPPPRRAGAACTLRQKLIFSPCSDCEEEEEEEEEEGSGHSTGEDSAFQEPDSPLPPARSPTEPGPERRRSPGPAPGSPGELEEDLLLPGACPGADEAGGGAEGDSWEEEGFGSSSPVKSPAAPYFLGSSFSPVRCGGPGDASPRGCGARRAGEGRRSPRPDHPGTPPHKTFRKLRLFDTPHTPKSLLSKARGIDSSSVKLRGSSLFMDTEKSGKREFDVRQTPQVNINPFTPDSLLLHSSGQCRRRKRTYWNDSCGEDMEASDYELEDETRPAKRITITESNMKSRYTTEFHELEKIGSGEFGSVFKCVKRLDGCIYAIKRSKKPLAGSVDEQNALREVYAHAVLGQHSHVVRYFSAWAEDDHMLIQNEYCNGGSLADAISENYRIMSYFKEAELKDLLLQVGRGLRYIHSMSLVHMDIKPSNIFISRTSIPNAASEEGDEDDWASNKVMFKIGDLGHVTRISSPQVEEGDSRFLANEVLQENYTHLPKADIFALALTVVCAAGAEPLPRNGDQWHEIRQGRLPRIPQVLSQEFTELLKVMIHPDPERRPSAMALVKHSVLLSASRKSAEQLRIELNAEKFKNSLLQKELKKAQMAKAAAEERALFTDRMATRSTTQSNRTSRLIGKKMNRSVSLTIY

**Q.** Which IC50 [1] does the source give for `C=CCn1c(=O)c2cnc(Nc3ccc(N4CC5CC(C4)N5C)cc3)nc2n1-c1ccc2c(n1)c(CC(=O)OC)cn2C` here?
**A.** The IC50 was 0.01 to 0.1 µM.

**Q.** What about the IC50 [2] of the same compound?
**A.** The IC50 was over 10 µM.

**Q.** And the IC50 [3]?
**A.** The IC50 was over 10 µM.

**Q.** With `C=CCn1c(=O)c2cnc(Nc3ccc(N4CC5CC(C4)N5C)cc3)nc2n1-c1ccc2c(n1)c(CC(=O)O)cn2C` as the compound, how does the IC50 [1] read?
**A.** Its IC50 is 0.01 to 0.1 µM.

**Q.** And the IC50 [2]?
**A.** Its IC50 is 5 to 10 µM.

**Q.** What about the IC50 [3] of the same compound?
**A.** Its IC50 is 5 to 10 µM.

From patent publication US20250034151A1, “WEE1 INHIBITOR, PREPARATION THEREFOR, AND USE THEREOF” (JIANGSU TASLY DIYI PHARMACEUTICAL CO., LTD., priority 2022, published 2025)
